Reference: paper PMC11099041, “Tissue distribution and retention drives efficacy of rapidly clearing VHL-based PROTACs” (Communications Medicine, 2024)

Chains of the proteins cited; added tags and fusions are not shown.
UniProt P51531, whole entry: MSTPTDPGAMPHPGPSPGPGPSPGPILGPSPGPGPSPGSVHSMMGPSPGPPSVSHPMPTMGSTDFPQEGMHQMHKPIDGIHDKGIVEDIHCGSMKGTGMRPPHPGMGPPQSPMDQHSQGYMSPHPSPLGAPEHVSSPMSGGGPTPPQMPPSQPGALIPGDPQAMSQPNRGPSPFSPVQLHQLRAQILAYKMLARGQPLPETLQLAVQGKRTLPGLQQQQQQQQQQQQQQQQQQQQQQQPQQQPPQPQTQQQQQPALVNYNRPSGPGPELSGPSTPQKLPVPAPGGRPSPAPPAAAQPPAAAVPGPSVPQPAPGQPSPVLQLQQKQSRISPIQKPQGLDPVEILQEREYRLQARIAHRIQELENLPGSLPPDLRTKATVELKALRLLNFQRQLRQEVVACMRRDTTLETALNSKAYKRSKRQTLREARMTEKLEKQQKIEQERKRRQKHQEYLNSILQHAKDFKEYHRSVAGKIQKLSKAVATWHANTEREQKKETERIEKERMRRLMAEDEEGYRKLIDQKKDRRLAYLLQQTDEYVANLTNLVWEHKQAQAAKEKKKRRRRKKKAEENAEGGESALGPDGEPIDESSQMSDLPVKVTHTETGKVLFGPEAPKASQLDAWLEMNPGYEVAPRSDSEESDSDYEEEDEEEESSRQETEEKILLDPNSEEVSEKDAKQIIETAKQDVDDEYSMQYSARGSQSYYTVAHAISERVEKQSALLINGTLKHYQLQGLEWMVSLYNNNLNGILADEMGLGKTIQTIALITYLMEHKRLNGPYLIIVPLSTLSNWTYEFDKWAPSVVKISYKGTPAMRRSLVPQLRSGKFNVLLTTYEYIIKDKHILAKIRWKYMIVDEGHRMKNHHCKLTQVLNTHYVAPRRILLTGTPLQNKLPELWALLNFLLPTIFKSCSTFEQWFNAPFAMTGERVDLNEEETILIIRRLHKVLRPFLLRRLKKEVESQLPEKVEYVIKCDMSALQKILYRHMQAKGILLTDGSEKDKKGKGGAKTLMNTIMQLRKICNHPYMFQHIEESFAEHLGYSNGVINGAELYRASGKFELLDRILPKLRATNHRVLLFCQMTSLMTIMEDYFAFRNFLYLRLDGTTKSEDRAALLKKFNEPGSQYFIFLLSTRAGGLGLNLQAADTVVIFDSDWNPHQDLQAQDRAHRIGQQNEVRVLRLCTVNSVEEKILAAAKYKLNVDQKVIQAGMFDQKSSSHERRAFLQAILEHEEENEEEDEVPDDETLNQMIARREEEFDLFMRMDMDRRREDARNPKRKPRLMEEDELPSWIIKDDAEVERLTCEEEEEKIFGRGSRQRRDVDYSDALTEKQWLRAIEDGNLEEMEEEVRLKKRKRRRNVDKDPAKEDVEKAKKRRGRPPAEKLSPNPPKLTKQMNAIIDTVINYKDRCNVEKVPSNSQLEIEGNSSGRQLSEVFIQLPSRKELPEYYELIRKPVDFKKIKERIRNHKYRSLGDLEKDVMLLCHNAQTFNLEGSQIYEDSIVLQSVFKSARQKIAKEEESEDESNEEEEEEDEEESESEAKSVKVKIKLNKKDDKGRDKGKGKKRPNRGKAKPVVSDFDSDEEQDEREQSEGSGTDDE
UniProt P05177, whole entry: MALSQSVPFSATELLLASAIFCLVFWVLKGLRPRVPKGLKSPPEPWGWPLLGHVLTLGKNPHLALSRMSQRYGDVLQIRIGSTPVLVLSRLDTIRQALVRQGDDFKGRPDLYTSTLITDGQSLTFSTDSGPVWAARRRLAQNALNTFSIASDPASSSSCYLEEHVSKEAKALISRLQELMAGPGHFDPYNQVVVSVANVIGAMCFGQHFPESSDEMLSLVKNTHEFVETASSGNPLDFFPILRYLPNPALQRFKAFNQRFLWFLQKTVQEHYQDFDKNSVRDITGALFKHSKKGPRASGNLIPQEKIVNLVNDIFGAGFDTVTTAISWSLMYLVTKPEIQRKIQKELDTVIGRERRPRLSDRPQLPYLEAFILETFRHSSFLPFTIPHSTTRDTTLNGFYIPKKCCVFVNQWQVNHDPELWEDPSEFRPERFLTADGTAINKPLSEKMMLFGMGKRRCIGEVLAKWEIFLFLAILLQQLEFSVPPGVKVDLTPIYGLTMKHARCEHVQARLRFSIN

Tests used:
SMARCA2 = target: T1, SMARCA2 (Homo sapiens, UniProt P51531); assay: SMARCA2 re-synthesis after drug washout in NCI-H1944 cells; type: cell-based
T1 construct: from tissue; host or cells: xenograft tumour (HCC2302) in mice

[1] = In vitro metabolism in human liver microsomes; type: in vitro ADME; conditions: 5 µM, 1 hr
Description: The supernatant (5 µL) was analyzed by LC-MS as described above. Buffer control incubations were also included.

CYP1A2 = target: T2, CYP1A2 (Homo sapiens, UniProt P05177); assay: Time-dependent P450 inhibition (TDI) in HLM; type: biochemical; conditions: 30 min pre-incubation ± NADPH, substrate Phenacetin
T2 construct: phosphate buffer (100 mM, pH 7.4) containing human liver microsomes (HLM); from tissue; host or cells: human liver microsomes
Description: (§1) The time-dependent inhibition (TDI) experiment was performed in triplicate as described in literature. […] Incubation samples were processed and subsequently analyzed by LC-MS/MS as described in the reversible P450 inhibition assay. For each P450 enzyme, two sigmoidal dose-response curves were obtained to calculate %AUC shifts.

CYP3A4/5 = assay: Time-dependent P450 inhibition (TDI) in HLM; type: biochemical, human; conditions: 30 min pre-incubation ± NADPH
Description: as §1

[2] = In vitro metabolism in rat hepatocytes; conditions: 5 µM A947, 3 hr
[3] = In vitro metabolism in human hepatocytes; conditions: 5 µM A947, 3 hr
[4] = rat, in vivo
Excerpt: Male Sprague Dawley rats, intact or bile-cannulated, were from Envigo RMS, Inc. The animals were acclimated to study conditions for five days prior to dose administration. During acclimation, animals were individually housed in suspended, stainless steel, wire-mesh cages. During the test period, animals were placed in Nalgene cages designed for the collection of urine, feces, and bile. Certified Rodent Diet #2016C or 2016CM (Envigo RMS, Inc.) were provided ad libitum. Water was provided fresh daily. Environmental controls for the animal room were set to maintain a temperature of 20-26 °C, a relative humidity of 50 ± 20%, and a 12-hour light/12-hour dark cycle. […] Three BDC rats were used for collection of bile, urine, and feces, five intact rats for collection of plasma, blood, urine, feces, and tissues, and eight intact rats for collection of blood and carcasses for QWBA. […] The actual amount administered was determined by weighing the dose syringe before and after dose administration. […] Prior to section collection, standards fortified with ^14C radioactivity were placed into the frozen block containing the carcass and were used for monitoring the uniformity of section thickness. […] Specified tissues, organs, and fluids were analyzed. […] The mean time concentration profile was generated for each group, and an overall AUC was then calculated with these sparse samples of rats and mice. […]

| Structure (SMILES) | SMARCA2 protein re-synthesis after washout (SMARCA2; NCI-H1944, 48 h and 168 h after 8-hour treatment and washout) | SMARCA2 protein degradation (SMARCA2; NCI-H1944 cells, 10 nM, 8 h) | Estimated relative distribution percent of mass spectral abundance ([1]; human liver microsomes (+NADPH, +UDPGA)) [%] | Estimated relative distribution percent of mass spectral abundance ([1]; human liver microsomes (-NADPH, -UDPGA)) [%] | %AUC Shift (CYP1A2) [%] | %AUC Shift (CYP3A4/5; substrate Midazolam) [%] | %AUC Shift (CYP3A4/5; substrate Testosterone) [%] | Estimated relative distribution percent of mass spectral abundance [2] [%] | Estimated relative distribution percent of mass spectral abundance [3] [%] | Half-lives in selected tissues [4] |
| --- | --- | --- | --- | --- | --- | --- | --- | --- | --- | --- |
| Cc1ncsc1-c1ccc(C(C)NC(=O)C2CC(O)CN2C(=O)C(c2cc(N3CCC(CN4CCC(OC5CC(Oc6cc(N7C8CCC7CN(c7cc(-c9ccccc9O)nnc7N)C8)ccn6)C5)CC4)CC3)no2)C(C)C)cc1 (stereo not shown) [A947] | minimal SMARCA2 protein re-synthesized | ~ 85% | 96.9 | 99.1 | -6.7 | 33 | 38 | 94.4 | 93.8 |  |
| Cc1ncsc1-c1ccc(C(C)NC(=O)C2CC(O)CN2C(=O)C(c2cc(N3CCC(CN4CCC(OC5CC(Oc6cc(N7C8CCC7CN(c7cc(-[14c]9[14cH][14cH][14cH][14cH][14c]9O)nnc7N)C8)ccn6)C5)CC4)CC3)no2)C(C)C)cc1 (stereo not shown) [14C-A947] |  |  |  |  |  |  |  |  |  | ~ 80 hours |
